Results on four compounds are retold here after patent US10106510B2, “Substituted isoxazoles for treating cancer” (EPIZYME, INC., priority 2014, dated 2018).

Amino acid sequences for entries named in this document (tags omitted). A change or cut given only in a name is not applied to a line headed by its entry.
UniProt Q9H7B4: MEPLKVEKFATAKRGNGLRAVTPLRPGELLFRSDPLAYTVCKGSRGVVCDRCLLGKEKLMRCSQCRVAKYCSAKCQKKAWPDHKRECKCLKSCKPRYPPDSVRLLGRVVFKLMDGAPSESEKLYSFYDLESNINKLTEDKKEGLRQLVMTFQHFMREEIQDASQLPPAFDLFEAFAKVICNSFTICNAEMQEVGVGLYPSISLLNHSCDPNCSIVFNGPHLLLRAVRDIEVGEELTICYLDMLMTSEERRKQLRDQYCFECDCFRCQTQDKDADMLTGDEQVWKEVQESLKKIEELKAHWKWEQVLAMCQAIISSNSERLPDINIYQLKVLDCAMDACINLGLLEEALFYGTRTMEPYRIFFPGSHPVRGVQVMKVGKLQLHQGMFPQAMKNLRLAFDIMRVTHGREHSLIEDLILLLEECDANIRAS

pIC50: −log10 of the molar value.

The experiment deals with SMYD3 (Homo sapiens (Human), UniProt Q9H7B4). Put plainly: SMYD3 biochemical assay (SMYD3 enzyme assay on MEKK2 protein substrate, scintillation proximity assay). The note with it: 3H-SAM, SPA, IC50 values are an average of n = 1 to n = 50, read-out: SMYD3 Biochem IC50. The text has this: S-adenosylmethionine (SAM), S-adenosylhomocysteine (SAH), Tris, Tween20, dimethylsulfoxide (DMSO), bovine skin gelatin (BSG), and Tris(2-carboxyethyl)phosphine hydrochloride solution (TCEP) were purchased from Sigma-Aldrich at the highest level of purity possible. ^3H-SAM was purchase from American Radiolabeled Chemicals with a specific activity of 80 Ci/mmol. 384-well opaque white OptiPlates and SPA beads (Perkin Elmer, catalog # RPNQ0013) were purchased from PerkinElmer.
N-terminally GST-tagged MEKK2 (MAP3K2) protein corresponding to reference sequence AAF63496.3 was purchased from Life Technologies (catalog # PV4010). This protein was expressed in High Five insect cells and purified to >85 % purity. Protein identity was confirmed by MS/MS analysis after proteolytic digestion. The protein sequence used was:
Full-length human SMYD3 isoform 1 (BAB86333) was inserted into a modified pET21b plasmid containing a His6 tag and TEV and SUMO cleavage sites. Because two common variants of SMYD3 exist in the population, site directed mutagenesis was subsequently performed to change amino acid 13 from an asparagine to a lysine, resulting in plasmid pEPZ533. A lysine at position 13 conforms to the more commonly occurring sequence (NP_001161212).
E. coli (BL21 codonplus RIL strain, Stratagene) were transformed with plasmid pEPZ553 by mixing competent cells and plasmid DNA and incubating on ice for 30minutes followed by heat shock at 42° C. for 1 minute and cooling on ice for 2 minutes. Transformed cells were grown and selected on LB agar with 100 μg/mL ampicillin and 17 μg/mL chloramphenicol at 37° C. overnight. A single clone was used to inoculate 200 mL of LB medium with 100 μg/mL ampicillin and 17 μg/mL chloramphenicol and incubated at 37° C. on an orbital shaker at 180 rpm. Once in log growth, the culture was diluted 1:100 into 2 L of LB medium and grown until OD600 was about 0.3 after which the culture was incubated at 15° C. and 160 rpm. Once OD600 reached about 0.4, IPTG was added to a final concentration of 0.1 mM and the cells were grown overnight at 15° C. and 160 rpm. Cells were harvested by centrifugation at 8000 rpm, for 4 minutes at 4° C. and stored at −80° C. for purification.
Expressed full-length human His-tagged SMYD3 protein was purified from cell paste by Nickel affinity chromatography after equilibration of the resin with Buffer A (25 mM Tris, 200 mM NaCl, 5% glycerol, 5 mM β-mercaptoethanol, pH7.8). The column was washed with Buffer B (Buffer A plus 20 mM imidazole) and His-tagged SMYD3 was eluted with Buffer C (Buffer A plus 300 mM imidazole). The His tag, TEV and SUMO cleavage sites were removed generating native SMYD3 by addition of ULP1 protein at a ratio of 1:200 (ULP1:SMYD3). […]
On the technique in general: Scintillation proximity formats need no separation of bound from free tracer.
Usually pIC50 stands for the negative decadic logarithm of the IC50, by convention in mol/L. `N[C@H]1CCC[C@H](C(=O)N[C@H]2CC[C@H](NC(=O)c3cc(C4CC4)on3)CC2)C1` [compound 20, N-((1S,4r)-4-((1S,3S)-3-aminocyclohexane-1-carboxamido)cyclohexyl)-5-cyclopropylisoxazole-3-carboxamide]: the negative logarithm of the IC50 (pIC50) was 6.20.

`CC(C)CN[C@H]1CC[C@H](NC(=O)c2cc(C3CC3)on2)CC1` [compound 24, 5-cyclopropyl-N-((1r,4r)-4-(isobutylamino)cyclohexyl) isoxazole-3-carboxamide]: the pIC50 is 5.59.

Consider `NC[C@H](O)CC(=O)N[C@H]1CC[C@H](NC(=O)c2cc(C3CC3)on2)CC1` [compound 30, N-((1R,4r)-4-((R)-4-amino-3-hydroxybutanamido)cyclohexyl)-5-cyclopropylisoxazole-3-carboxamide], for which the negative-log IC50 (pIC50) was 5.77.

Take `NC[C@@H](O)CC(=O)N[C@H]1CC[C@H](NC(=O)c2cc(C3CC3)on2)CC1` [compound 31, N-((1S,4r)-4-((S)-4-amino-3-hydroxy-butanamido)cyclohexyl)-5-cyclopropylisoxazole-3-carboxamide]: the pIC50 is 5.97.
